Earlier results on one compound are cited in patent US5462929A, “Treatment of psoriasis by administration of 4-carbamoyl-1-β-D-ribofuranosylimidszolium-5-oleate” (Asahi Kasei Kogyo Kabushiki Kaisha, priority 1991, dated 1995).

In the data set the test system is rats. The settings on record: female, p.o.; cited from earlier work.

The LD50 is the dose at which mortality reaches 50%. `NC(=O)c1ncn([C@@H]2O[C@H](CO)[C@@H](O)[C@H]2O)c1O` [Mizoribine, 4-carbamoyl-1-β-D-ribofuranosyl-imidazolium-5-olate]: the LD50 is recorded as greater than 2847 mg/kg.
